Where “and” joins values, the source holds several entries; their conditions need not be identical. Identical values can stand only once. The entries are a selection whose mix differs from that of the whole data set. Some structures show a salt or complex split into parts, the way the source records it. Calls of active or inactive are those of the source. Rule as the data show it: active = growth inhibition above about 70%; inactive = the rest.
What was measured:
[1] = NCI Yeast Anticancer Drug Screen. Data for the rad50 strain (AID 155);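 also: 0% = growth of vehicle-only cultures of the same strain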; conditions: S. cerevisiae rad50 strain growth inhibition; at 50.0 µM; hits give high values
[2] = NCI Yeast Anticancer Drug Screen. Data for the mec2-1 strain (AID 157); conditions: S. cerevisiae mec2-1 strain, at 50.0 µM, hits give high values
[3] = NCI Yeast Anticancer Drug Screen. Data for the sgs1 mgt1 strain (AID 161);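 also: 0% = growth of cultures given vehicle only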; conditions: S. cerevisiae sgs1 mgt1 strain, at 50.0 µM, hits give high values
[4] = NCI Yeast Anticancer Drug Screen. Data for the cln2 rad14 strain (AID 165);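 also: 0% = growth equal to vehicle treated cultures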; conditions: S. cerevisiae cln2 rad14 strain, at 50.0 µM, hits give high values
[5] = NCI Yeast Anticancer Drug Screen. Data for the bub3 strain (AID 167); conditions: S. cerevisiae bub3 mutant strain, at 50.0 µM, hits give high values
[6] = NCI Yeast Anticancer Drug Screen. Data for the mlh1 rad18 strain (AID 175); conditions: S. cerevisiae mlh1 rad18 strain growth inhibition; at 50.0 µM; hits give high values

Measured: growth inhibition

CCN(CC)CCCN.O=[N+]([O-])c1cc([N+](=O)[O-])c(O)c([N+](=O)[O-])c1
inactive: [1] 8.9% | [2] 27.2% | [3] 21.8% | [4] -3.2% | [5] 18.6% | [6] 14.6%

C1CN1.Cc1c[nH]c(=O)[nH]c1=O
inactive: [1] -15.3% and -8.3% | [2] -28.2% and 13.6% | [4] -25.9% and -11.9% | [5] -17.3% and 2.85% | [6] -31.6% and -25.7%

C[N+](C)(C)C.n1n[n-]c(-c2nnn[n-]2)n1
inactive: [1] -2.6% | [2] -4.55% | [3] -13.9% | [4] 6.3% | [5] 14.5% | [6] -1.4%

CCOP(=O)(O)CC.[Ti]
inactive: [1] -9.55% | [2] -16.1% | [3] -8.45% | [4] -39.5% | [5] -8.55% | [6] -15.2%

NN/C(N)=N/[N+](=O)[O-]
inactive: [1] 21% | [2] -42.2% | [3] -4.25% | [4] 13.8% | [5] -16.6% | [6] 18.1%

C[n+]1ccc(/C=C/c2ccccc2)cc1.O=[N+]([O-])c1cc([N+](=O)[O-])c([O-])c([N+](=O)[O-])c1
inactive: [1] 9.25% | [2] -1.45% | [3] -21.6% | [4] -35.7% | [5] 17.2% | [6] -3.5%

ClCCN(CCCl)c1ccc(C2OCCO2)cc1.[C-]#[O+].[C-]#[O+].[C-]#[O+].[Cr]
inactive: [1] 14.2% | [2] -4% | [3] 6% | [4] -17.1% | [5] -1.35% | [6] 16.8%

CN(C)Cc1cc2ccccc2[nH]1.O=[N+]([O-])c1cc([N+](=O)[O-])c(O)c([N+](=O)[O-])c1
inactive: [1] -4.3% | [2] 9.55% | [3] 13.7% | [4] -17% | [6] 37%

O=C1c2cc([N+](=O)[O-])ccc2-c2c1cc([N+](=O)[O-])cc2[N+](=O)[O-].c1cc2ccc3cccc4ccc(c1)c2c34
inactive: [1] 11.7% | [2] -0.8% | [3] 15.1% | [5] 3.8% | [6] 42.3%

CC1CN1.O=[N+]([O-])c1cc([N+](=O)[O-])c(S(=O)(=O)O)c([N+](=O)[O-])c1
inactive: [1] 21.1% | [2] 28.9% | [3] 34.8% | [4] 33% | [5] 27.7% | [6] 46.1%

CCN(CC)CCOC(=O)C(O)(c1ccc(C)cc1)c1ccc(C)cc1
inactive: [1] 19.6% | [2] 7% | [3] 9.7% | [4] 3.4% | [5] 2.1% | [6] 15.9%

NC1CCC2C3CCC(C3)C12.O=[N+]([O-])c1cc([N+](=O)[O-])c(O)c([N+](=O)[O-])c1
inactive: [1] 46.6% | [2] 16.3% | [4] -8.8% | [5] 21% | [6] 31.5%

CC(c1ccccc1)N(C)C.O=[N+]([O-])c1cc([N+](=O)[O-])c(O)c([N+](=O)[O-])c1
inactive: [1] 6.2% | [2] -6.4% | [3] 4% | [5] -1.3% | [6] 10.8%

NCCCO.O=[N+]([O-])c1cc([N+](=O)[O-])c(O)c([N+](=O)[O-])c1
inactive: [1] 12.5% | [2] 4.9% | [3] 13.9% | [4] -40.6% | [5] -5.7% | [6] 0.05%

CN1C(C)(C)CC(O)(c2ccccc2)CC1(C)C.O=[N+]([O-])c1cc([N+](=O)[O-])c(O)c([N+](=O)[O-])c1
inactive: [1] 28.2% | [2] 0.75% | [3] -10.8% | [4] 6.15% | [5] 0.9% | [6] 34.4%

C1CN1P1(N2CC2)=NP(N2CC2)(N2CC2)=NP(N2CC2)(N2CC2)=N1.O=[N+]([O-])c1cc([N+](=O)[O-])c(O)c([N+](=O)[O-])c1
inactive: [1] -10.1% | [2] 15.4% | [3] -4.25% | [4] 46.2% | [5] 12.6% | [6] -9.4%

C[S+](N)(=O)CCC(N)P(=O)(O)O.O=[N+]([O-])c1cc([N+](=O)[O-])c([O-])c([N+](=O)[O-])c1
inactive: [1] -30% | [2] -13.7% | [3] -6.75% | [4] -20.6% | [5] 10.4% | [6] -13.2%

CCCC[N+](CCCC)(CCCC)CCCC.O=[N+]([O-])c1cc([N+](=O)[O-])c([O-])c([N+](=O)[O-])c1
inactive: [1] -16.6% | [2] -0.75% | [3] 5.4% | [4] 17.4% | [5] -1% | [6] 6.15%

Reference: PubChem BioAssay (NCI)
